Assay results: paper PMC12503259, “Establishment of an in vivo analytical method for detecting total anti-UFH activity and pharmacokinetic study in PS and R15 in rats” (PLOS One, 2025)

What was measured:
[1] = test system: activated partial thromboplastin time (APTT); settings: in vitro, cited from earlier work
[2] = Stability in rat plasma at room temperature for 30 min; format: in vitro ADME; settings: room temperature (25°C ± 1°C) for 30 min; for Measured concentration after storage, Mean ± SD: n = 6
Experimental: Processing of Plasma Samples: 100 μL of the unknown plasma sample was added to 500 μL of 75% methanol (methanol: water = 75:25, v/v) and vortex-mixed for 5 seconds. The mixture was then centrifuged at 12,000 r/min for 10 minutes at 25°C. The supernatant (500 μL) was collected and dried under nitrogen at 60°C. Subsequently, UFH (0.14 U·mL^-1 for PS and 0.15 U·mL^-1 for R15; 120 μL) was added, and the mixture was vigorously shaken at room temperature for 10 minutes. The residual UFH content was measured using the Heparin Anti-FXa assay kit.
The detailed procedure is as follows: Accurately pipette 40 μL of the sample into a 96-well plate. Place the plate in a microplate shaker. Using a multichannel pipette, add 40 μL of reagent R1 and mix by shaking. Incubate at 37 °C for exactly 3 minutes (start timing upon addition of R1; at 50 seconds, begin shaking with the microplate shaker for 1 minute, then place the plate in the incubator). Remove the 96-well plate from the incubator and place it on the open microplate shaker. Using a multichannel pipette, add 40 μL of reagent R2 to each well and incubate at 37 °C for 6 minutes (after adding R2, at 3 minutes and 50 seconds, open the microplate shaker and shake for 4 minutes, then return the plate to the incubator). Remove the 96-well plate from the incubator and place it on the open microplate shaker. Quickly add 40 μL of reagent R3 using a multichannel pipette and shake until 9 minutes and 10 seconds. At 9 minutes and 30 seconds, add 80 μL of 20% acetic acid to each well to terminate the reaction. Measure the absorbance at 405 nm using a microplate reader (Multiskan FC, Thermo Fisher US).
Two concentration levels (low and high QC) were evaluated for validation of storage stability and freeze/thaw stability. Two concentration levels of PS and R15 (low and high QC) in blank rat plasma were prepared (n = 6), respectively. Samples in rats’ plasma were determined after storage at room temperature (25°C ± 1°C) for 30 min. Samples in rats’ plasma were under three freeze (−80°C)-thaw (25°C) cycles. Stock solution of PS and R15 were stored at 4°C for a week. All the samples mentioned above were processed by calibration curves with adequate QC samples diluted from newly prepared stock solution of PS and R15, followed by procedure of sample determination (see “Sample Preparation”), respectively.

N=C(N)NCCC[C@H](NC(=O)[C@H](CCCNC(=N)N)NC(=O)[C@H](CCCNC(=N)N)NC(=O)[C@H](CCCNC(=N)N)NC(=O)[C@H](CCCNC(=N)N)NC(=O)[C@H](CCCNC(=N)N)NC(=O)[C@H](CCCNC(=N)N)NC(=O)[C@H](CCCNC(=N)N)NC(=O)[C@H](CCCNC(=N)N)NC(=O)[C@H](CCCNC(=N)N)NC(=O)[C@H](CCCNC(=N)N)NC(=O)[C@H](CCCNC(=N)N)NC(=O)[C@H](CCCNC(=N)N)NC(=O)[C@H](CCCNC(=N)N)NC(=O)[C@@H](N)CCCNC(=N)N)C(=O)O [R15]
time within which degraded ([1]; supratherapeutic amount): ≤ 2 h | effect of excess on APTT ([1]; supratherapeutic amounts): APTT normalizes | Measured concentration after storage, Mean ± SD ([2]; nominal 0.7 μg·mL^-1, anti-FXa read-out at 405 nm): 0.70 ± 0.02 µg/mL | RE (%) versus nominal concentration ([2]; nominal 0.7 μg·mL^-1, n = 6): 0.24% | Measured concentration after storage, Mean ± SD ([2]; nominal 1.5 μg·mL^-1, anti-FXa read-out at 405 nm): 1.63 ± 0.09 µg/mL | RE (%) versus nominal concentration ([2]; nominal 1.5 μg·mL^-1, n = 6): 8.57%
